# Literature values in paper PMC5601007, “Synthesis, Molecular Properties Estimations, and Dual Dopamine D2 and D3 Receptor Activities of Benzothiazole-Based Ligands” (Frontiers in Chemistry, 2017).
# By UniProt entry, the sequences of proteins in these tests, tags left out. Residues count along the entry.
# UniProt P14416, 1-414 isoform P14416-2: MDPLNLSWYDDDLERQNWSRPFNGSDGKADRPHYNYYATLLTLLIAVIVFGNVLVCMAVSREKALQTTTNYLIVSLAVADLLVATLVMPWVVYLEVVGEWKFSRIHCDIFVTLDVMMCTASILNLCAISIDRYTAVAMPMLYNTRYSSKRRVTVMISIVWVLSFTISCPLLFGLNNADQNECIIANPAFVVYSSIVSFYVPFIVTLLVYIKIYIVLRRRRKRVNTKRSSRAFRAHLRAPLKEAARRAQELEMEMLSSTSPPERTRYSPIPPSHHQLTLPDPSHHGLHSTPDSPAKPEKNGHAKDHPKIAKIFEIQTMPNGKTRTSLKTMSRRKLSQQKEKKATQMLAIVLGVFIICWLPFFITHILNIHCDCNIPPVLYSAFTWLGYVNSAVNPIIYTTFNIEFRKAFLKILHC
# Target: hD2SR (Homo sapiens, UniProt P14416)
# Conditions: calculated from literature Ki; ref Sukalovic et al., 2005; cited from earlier work
compound,measurement,value
"COc1ccccc1N1CCN(CCCCNC(=O)c2ccc3ccccc3c2)CC1 [Compound 1, BP-897]",hD2SR affinity pKi,7.2
